Data taken from publication PMC4764553, “Human cytomegalovirus IE1 protein alters the higher-order chromatin structure by targeting the acidic patch of the nucleosome” (eLife, 2016).

Biological target: Human nucleosome core particle (human histone octamer with the 147-bp Widom 601 DNA) (human), P68431
Assay: ITC

Q: With MAPPGMRLRSGRSTGAPLTRGS (modifications not checked) as the binder, how does the Kd read?
A: 250 nM
